Laboratory results published in ChEMBL document CHEMBL2311497, “An optimized RAD51 inhibitor that disrupts homologous recombination without requiring Michael acceptor reactivity” (J Med Chem, 2013).

What was measured:
[1] = molecular target: T1, DNA repair protein RAD51 homolog 1 (Homo sapiens) (UniProt Q06609); conditions: HEK293, 20 uM
T1 sequence (whole entry): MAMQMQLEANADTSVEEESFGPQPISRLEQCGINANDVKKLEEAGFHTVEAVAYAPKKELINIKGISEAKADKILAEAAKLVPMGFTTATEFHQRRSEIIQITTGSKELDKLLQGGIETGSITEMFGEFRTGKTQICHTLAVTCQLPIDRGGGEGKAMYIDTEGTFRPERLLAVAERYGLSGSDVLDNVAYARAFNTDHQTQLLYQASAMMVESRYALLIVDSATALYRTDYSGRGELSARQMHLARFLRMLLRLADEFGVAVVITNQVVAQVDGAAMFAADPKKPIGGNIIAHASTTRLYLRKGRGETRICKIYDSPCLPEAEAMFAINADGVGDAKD

[2] = molecular target: T1, DNA repair protein RAD51 homolog 1 (Homo sapiens); conditions: 10 uM
[3] = molecular target: T1, DNA repair protein RAD51 homolog 1 (Homo sapiens); conditions: 59 uM

inhibition [1]: Active | inhibition [2]: Active | inhibition [3]: tde
SMILES: O=C1C(Cl)=C(N2CCOCC2)C(=O)N1c1ccc(Cl)c(Cl)c1

Active and inactive are the calls of the source. The rule behind the calls is not given here.
